The text below walks through data of ChEMBL document CHEMBL1208783, “An orally bioavailable positive allosteric modulator of the mGlu4 receptor with efficacy in an animal model of motor dysfunction” (Bioorg Med Chem Lett, 2010).

The target of this experiment is Metabotropic glutamate receptor 5 (Homo sapiens, UniProt P41594). As to the kind of experiment: Selectivity ratio of IC50 for human mGluR5 to EC50 for human mGluR5.

For `Nc1nccc(/C=C/c2ccccc2)n1`, the Selectivity ratio was > 30.
